We go through one compound from ChEMBL document CHEMBL4373747 (ACS Med Chem Lett, 2020).

Sequences of proteins named here, by UniProt entry; tags and fusion partners are left off. A change or cut given only in a name is not applied to a line headed by its entry.
UniProt Q9UQL6: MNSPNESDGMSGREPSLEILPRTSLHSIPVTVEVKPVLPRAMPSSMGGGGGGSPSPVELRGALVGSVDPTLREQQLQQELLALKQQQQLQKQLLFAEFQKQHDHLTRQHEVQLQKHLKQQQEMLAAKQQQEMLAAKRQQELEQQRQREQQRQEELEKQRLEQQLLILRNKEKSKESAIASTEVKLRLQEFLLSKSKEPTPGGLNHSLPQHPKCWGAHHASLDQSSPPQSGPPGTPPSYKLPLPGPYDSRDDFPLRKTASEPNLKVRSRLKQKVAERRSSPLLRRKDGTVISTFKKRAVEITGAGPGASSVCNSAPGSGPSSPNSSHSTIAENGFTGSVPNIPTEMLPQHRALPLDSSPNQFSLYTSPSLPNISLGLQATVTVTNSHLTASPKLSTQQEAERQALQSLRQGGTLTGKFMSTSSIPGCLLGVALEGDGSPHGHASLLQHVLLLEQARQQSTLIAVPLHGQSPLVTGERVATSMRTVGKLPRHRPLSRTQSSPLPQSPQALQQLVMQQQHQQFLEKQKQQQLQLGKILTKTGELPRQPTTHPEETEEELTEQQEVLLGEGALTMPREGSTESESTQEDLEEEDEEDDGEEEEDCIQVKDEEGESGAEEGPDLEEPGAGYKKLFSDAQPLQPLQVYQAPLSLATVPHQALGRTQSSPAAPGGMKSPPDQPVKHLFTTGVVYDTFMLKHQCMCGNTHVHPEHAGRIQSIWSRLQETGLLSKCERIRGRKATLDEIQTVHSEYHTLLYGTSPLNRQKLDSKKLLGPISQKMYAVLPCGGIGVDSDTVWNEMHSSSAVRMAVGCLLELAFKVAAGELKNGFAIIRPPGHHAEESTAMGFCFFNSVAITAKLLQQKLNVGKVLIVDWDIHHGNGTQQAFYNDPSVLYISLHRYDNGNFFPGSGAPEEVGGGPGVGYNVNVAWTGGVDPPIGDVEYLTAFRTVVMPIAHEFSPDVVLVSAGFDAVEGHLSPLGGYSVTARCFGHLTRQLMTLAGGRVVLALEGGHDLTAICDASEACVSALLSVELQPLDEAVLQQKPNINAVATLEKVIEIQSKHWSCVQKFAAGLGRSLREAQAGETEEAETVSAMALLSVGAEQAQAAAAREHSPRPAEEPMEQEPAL
UniProt Q9UKV0: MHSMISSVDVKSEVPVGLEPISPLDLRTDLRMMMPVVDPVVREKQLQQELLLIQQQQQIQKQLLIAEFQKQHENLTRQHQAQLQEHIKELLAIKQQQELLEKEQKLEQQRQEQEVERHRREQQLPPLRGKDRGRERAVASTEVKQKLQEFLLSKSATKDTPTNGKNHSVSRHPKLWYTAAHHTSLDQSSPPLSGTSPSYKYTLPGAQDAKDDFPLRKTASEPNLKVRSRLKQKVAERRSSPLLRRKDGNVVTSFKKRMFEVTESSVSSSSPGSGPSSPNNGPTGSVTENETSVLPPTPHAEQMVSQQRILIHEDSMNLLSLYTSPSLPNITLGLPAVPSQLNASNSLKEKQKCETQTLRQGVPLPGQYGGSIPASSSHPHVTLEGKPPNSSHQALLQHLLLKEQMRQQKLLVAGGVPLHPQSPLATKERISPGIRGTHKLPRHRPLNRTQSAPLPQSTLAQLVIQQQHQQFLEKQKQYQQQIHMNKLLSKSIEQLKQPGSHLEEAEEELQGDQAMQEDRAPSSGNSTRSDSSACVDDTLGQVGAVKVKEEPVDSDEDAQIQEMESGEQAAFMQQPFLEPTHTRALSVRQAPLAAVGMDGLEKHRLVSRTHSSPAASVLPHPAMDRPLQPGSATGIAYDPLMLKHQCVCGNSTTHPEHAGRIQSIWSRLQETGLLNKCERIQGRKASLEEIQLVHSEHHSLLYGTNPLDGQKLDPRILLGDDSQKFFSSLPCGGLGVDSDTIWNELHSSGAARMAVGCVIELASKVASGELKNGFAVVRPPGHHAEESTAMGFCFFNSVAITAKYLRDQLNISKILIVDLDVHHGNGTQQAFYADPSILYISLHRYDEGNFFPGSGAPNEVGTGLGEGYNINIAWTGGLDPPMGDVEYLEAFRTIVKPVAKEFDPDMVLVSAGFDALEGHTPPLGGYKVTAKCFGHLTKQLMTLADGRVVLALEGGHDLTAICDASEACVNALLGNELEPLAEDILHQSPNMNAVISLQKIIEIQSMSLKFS

One assay deals with Histone deacetylase 5 (Homo sapiens, UniProt Q9UQL6). Description: Inhibition of recombinant full length human HDAC5 expressed in baculovirus infected Sf9 cells using FAM-RHKK-TFAc as substrate incubated for 3 hrs by electrophoretic mobility shift assay.
The target of another assay is Histone deacetylase 9 (Homo sapiens, UniProt Q9UKV0). As to the kind of experiment: Inhibition of recombinant human HDAC9 (604-1066 residues) expressed in baculovirus infected Sf9 cells using FAM-RHKK-TFAc as substrate incubated for 3 hrs by electrophoretic mobility shift assay. On the technique in general: A gel shift assay detects complexes by their altered migration in electrophoresis.

Usually IC50 stands for the concentration that gives 50% inhibition. For the compound `CC(/C=C/C(=O)NO)=C\[C@@H](C)C(=O)c1ccc(N(C)C)cc1` [TRICHOSTATIN], the IC50 at Histone deacetylase 5 was 776 nM; at Histone deacetylase 9, greater than 1000 nM.
